Here are results for one substance from publication PMC5291322, “Development of Cell‐Permeable, Non‐Helical Constrained Peptides to Target a Key Protein–Protein Interaction in Ovarian Cancer” (Angewandte Chemie (International Ed. in English), 2016).

In the assay the target is T1, mImportin α1 ΔIBB (Mus musculus, UniProt P52293).
T1 construct: made in house; host or cells: E. coli BL21 (DE3) CodonPlus-RIL
Nature of the assay: Isothermal titration calorimetry (ITC). As to conditions: 25 °C, 20 mM Hepes pH 8, 200 mM NaCl, one site binding model. As for the experimental part: Because the binding affinity of cargo proteins for their carrier is an important factor for efficient nuclear import,26 it was imperative to quantify the dissociation constant (K d) of the HNF1β^DBD with its nuclear import protein (importin α) by isothermal titration calorimetry (ITC; see Figure S4 in the Supporting Information for ITC curve and binding parameters).
HNF1β protein knockdown levels – Western Blots
Figure 3. HNF1β protein expression levels 48 and 72 h post-transduction with shRNA knockdown clone 583 and shRNA non-target
control SHC202 in PEO1, JHOC5, JHOC7, JHOC9, OVISE and SKOV3 lines. For HGSOC line PEO1, JHOC7 protein lysates were
used as a positive staining control. GAPDH was used as the loading control.
Cells were plated in a 96-well plate (Corning) and incubated overnight. At each time point the
medium was removed and 100 μL trichloroacetic acid (TCA) was added. Cells were fixed at 4 °C overnight.
TCA was removed and plates were washed four times with water. Plates were allowed to dry and were
subsequently stained with Sulforhodamine B (SRB) stain for 30 min at room temperature. […]
(pH 10) on a shaker for 10 min. Optical densities (ODs) were read on a PHERAstar FS (BMG Labtech) at […]
measured by UV-Vis spectroscopy using a Nanodrop (Thermo) and small aliquots of the protein were flash […]
The Kd of mImportin α1 with the HNF1βDBD was determined by isothermal titration calorimetry (ITC) […]

With “HNF1β^DBD: DNA-binding domain of HNF1β (91-310), expressed in E. coli”, the Kd is 625 nM.
